Measured values from patent US12458674B2, “M13 phage based gene therapy platform” (Massachusetts Institute of Technology, priority 2021, dated 2025).
Like-named read-outs stand apart in the source and are kept apart here.

Key:
[1] = as reported; cited from earlier work
in vivo = settings: NCR-NU, mouse

Compound: CC1(C)C(/C=C/C=C/C=C/C=C2\N(CCCCS(=O)(=O)O)c3ccc4ccccc4c3C2(C)C)=[N+](CCCCS(=O)(=O)[O-])c2ccc3ccccc3c21 [free, indocyanine green]
- t1 (exponential decay fit y = A1*exp(−x/t1) + y0 of normalized vasculature signal intensity over time, one fit per mouse, value ± error, no unit in table (text b239: minutes)): 6.97 ± 0.54
- t1 (second t1 column of Table A2-1, same constant without error): 6.97
- half-life of free ICG dye [1]: 3 to 4 min
- half-life (in vivo): 4.83 min
